{"sequences": {"note": "The chains behind the UniProt entries cited, without tags or fusion partners. Residues count along the entry.", "UniProt P28335, 33-458": "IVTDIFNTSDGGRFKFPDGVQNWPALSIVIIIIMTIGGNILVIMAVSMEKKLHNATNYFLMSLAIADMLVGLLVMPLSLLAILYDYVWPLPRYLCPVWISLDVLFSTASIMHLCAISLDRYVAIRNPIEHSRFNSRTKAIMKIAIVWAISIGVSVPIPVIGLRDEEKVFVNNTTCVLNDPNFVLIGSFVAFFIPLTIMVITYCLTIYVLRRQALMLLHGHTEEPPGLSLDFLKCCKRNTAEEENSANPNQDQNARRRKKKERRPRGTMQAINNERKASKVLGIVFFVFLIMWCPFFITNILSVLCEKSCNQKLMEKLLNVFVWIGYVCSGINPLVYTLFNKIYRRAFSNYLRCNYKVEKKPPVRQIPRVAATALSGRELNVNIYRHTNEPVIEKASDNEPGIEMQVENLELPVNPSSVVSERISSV"}, "source": "patent US8586634B2", "about": "“Therapeutic compounds” (University of Florida Research Foundation, Inc., priority 2007, dated 2013)", "target": "5HT2C receptors (Homo sapiens, UniProt P28335)", "assay": "Radioligand saturation binding, CHO cell membranes", "settings": "Example 4", "description": "Representative curves are in FIGS. 2-4 and KD and Bmax summary in Table 3; values are consistent with literature (Knight et al., 2004).", "data": [{"substance": "[^3H]-mesulergine", "values": [{"measurement": "Kd", "result": "0.88 ± 0.03", "unit": "nM"}]}]}
